Test results published in patent publication US20120148530A1, “Method for the treatment or prevention of virus infection using polybiguanide-based compounds” (Novaflux Biosciences, Inc., priority 2003, published 2012).

Tested on: P4R5 cells
Test: P4R5 cell viability, MTT
Details: P4-R5 cells
Text: To build on the information provided by the monomeric biguanide data a series of polybiguanide molecules were synthesized with varied linker length as described in Example 1. In these molecules the methylene spacer arms between the biguanide functionalities (X and Y in Forumla I) have been changed.
As described above the effect of PEHMB and related compounds on P4R5 cell viability after a two-hour exposure to the compound was compared to the effects of control compounds such as N-9. […] To further evaluate the effect of this class of compound on various types of cells (in particular PEHMB P4-R5 cells, ME-180 cells (ATCC HTB-33; cervical epidermoid carcinoma), VK2/E6E7 human vaginal cell line (Fichorova et al. 1997 Biol. Reprod. 57:847-855), and human primary vaginal karatinocytes (isolated from tissues obtained from vaginal reconstructive surgery)) the compounds were incubated with the different cells for various lengths of time before assessment of cell viability.

For dextran sulfate, the “CC50 % 10 minute exposure” value (10 minute exposure) was ~2.0% and the “CC50 % 2 hr exposure” value (2 hr exposure) was >1.0%.
